The experiment addresses T1, NaV1.8 (Homo sapiens, UniProt Q9Y5Y9).
T1 construct: expressed in transfected cells; host or cells: ND7/23 cells (transient transfection, lipo2000)
Put plainly: Whole-cell patch clamp on NaV1.8 expressed in ND7/23 cells. Format: cell-based. As to conditions: human NaV1.8 with β1 and eGFP in ND7/23 cells. The method, then: Therefore, the activities of µ-TRTX-Hl1a on human sodium channel subtypes NaV1.1–NaV1.8 were further investigated. Sodium channel subtypes β1 and eGFP were transiently transfected into ND7/23 cells and currents were elicited by a depolarizing potential of −10 mV from a holding potential of −80 mV. 2 µM µ-TRTX-Hl1a could reduce about 50% of the NaV1.8 current and the inhibition was dose-dependent (Figure 5A).
Human sodium channel subtype Nav1.1–Nav1.7 were transiently transfected into HEK293T cells and NaV1.8, β1, and eGFP were transiently transfected into ND7/23cells following the manufacture instruction (lipo2000, Invitrogen, Carlsbad, CA, USA). The whole cell patch clamp recordings were carried out as previously described. The standard pipette solution contained (in mM) 140 CsF, 1 EGTA, 10 NaCl, 3 KCl, and 10 MgCl2, PH 7.3. […]
Experiments data were acquired and analyzed by using Clampfit 10.0 (Molecular Devices, Sunnyvale, CA, USA) and Sigmaplot (Systat Software Incx, San Jose, CA, USA) programs. Data were analyzed using the Clampfit (Axon, Sunnyvale, CA, USA) and Sigmaplot 9.0 (Systat Software Incx, San Jose, CA, USA) software programs. […] Conductance (G)–voltage relationships were determined from peak current (I) versus voltage relationships as G = I/(V − Vrev), where V was the test potential, and Vrev was the extrapolated reversal potential. Data were analyzed by using GraphPad Prism 4.

By UniProt entry, the sequences of proteins in these tests, tags left out.
UniProt Q9Y5Y9, whole entry: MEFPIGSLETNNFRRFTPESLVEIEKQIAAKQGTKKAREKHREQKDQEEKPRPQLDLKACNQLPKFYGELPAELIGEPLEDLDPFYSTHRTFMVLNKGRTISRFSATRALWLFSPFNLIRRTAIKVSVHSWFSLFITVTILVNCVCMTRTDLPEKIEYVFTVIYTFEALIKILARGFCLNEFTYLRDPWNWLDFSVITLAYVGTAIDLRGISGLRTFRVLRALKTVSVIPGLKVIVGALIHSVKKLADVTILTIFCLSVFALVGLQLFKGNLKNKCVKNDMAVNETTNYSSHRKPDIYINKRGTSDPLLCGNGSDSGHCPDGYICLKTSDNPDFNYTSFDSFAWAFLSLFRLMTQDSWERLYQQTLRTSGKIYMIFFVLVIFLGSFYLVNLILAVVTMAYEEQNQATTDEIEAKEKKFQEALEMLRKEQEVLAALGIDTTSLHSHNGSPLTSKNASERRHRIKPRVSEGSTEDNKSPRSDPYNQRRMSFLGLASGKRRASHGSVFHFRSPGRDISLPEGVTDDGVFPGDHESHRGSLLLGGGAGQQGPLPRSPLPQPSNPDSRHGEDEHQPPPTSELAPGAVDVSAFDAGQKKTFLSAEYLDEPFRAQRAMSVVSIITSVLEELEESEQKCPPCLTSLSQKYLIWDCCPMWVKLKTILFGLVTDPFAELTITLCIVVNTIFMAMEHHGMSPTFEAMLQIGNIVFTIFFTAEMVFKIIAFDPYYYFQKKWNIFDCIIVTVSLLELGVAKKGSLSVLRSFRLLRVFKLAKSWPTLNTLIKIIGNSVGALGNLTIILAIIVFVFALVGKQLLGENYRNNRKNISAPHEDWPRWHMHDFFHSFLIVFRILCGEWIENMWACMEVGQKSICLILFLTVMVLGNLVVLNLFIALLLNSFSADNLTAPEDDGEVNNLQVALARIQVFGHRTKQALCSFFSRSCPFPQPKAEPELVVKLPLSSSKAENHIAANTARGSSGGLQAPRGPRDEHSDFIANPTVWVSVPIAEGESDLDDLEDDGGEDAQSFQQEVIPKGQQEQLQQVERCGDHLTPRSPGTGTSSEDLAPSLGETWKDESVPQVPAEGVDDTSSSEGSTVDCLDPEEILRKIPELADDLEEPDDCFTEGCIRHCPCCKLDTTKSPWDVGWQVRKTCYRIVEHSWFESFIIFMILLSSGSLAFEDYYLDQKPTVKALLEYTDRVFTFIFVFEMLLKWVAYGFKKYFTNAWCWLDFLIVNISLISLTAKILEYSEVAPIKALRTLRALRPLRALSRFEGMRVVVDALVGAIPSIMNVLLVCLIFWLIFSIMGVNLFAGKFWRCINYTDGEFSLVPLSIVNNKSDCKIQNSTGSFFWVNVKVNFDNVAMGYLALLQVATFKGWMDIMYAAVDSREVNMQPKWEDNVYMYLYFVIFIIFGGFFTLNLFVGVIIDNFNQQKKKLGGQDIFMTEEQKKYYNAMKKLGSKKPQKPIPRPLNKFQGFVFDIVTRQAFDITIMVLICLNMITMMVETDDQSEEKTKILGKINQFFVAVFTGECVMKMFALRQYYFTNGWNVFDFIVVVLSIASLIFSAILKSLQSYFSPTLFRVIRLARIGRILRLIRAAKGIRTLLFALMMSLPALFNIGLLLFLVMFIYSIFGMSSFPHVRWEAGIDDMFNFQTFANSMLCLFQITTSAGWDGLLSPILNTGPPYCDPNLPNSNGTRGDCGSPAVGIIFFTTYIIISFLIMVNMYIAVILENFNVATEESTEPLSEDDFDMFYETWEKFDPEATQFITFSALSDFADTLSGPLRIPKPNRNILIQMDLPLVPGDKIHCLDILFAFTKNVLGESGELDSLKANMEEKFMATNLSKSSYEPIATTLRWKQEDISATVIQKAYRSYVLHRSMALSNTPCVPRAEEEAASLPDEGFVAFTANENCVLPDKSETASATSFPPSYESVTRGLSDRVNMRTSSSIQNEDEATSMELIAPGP

The results in this text go back to paper PMC5308240, “A Novel Toxin from Haplopelma lividum Selectively Inhibits the NaV1.8 Channel and Possesses Potent Analgesic Efficacy” (Toxins, 2016).

One may read the IC50 as the concentration that gives 50% inhibition. Low readings indicate greater potency in that assay, high ones weaker potency in that assay. In the case of `CC[C@H](C)[C@@H]1NC(=O)[C@H](CCCNC(=N)N)NC(=O)[C@H]([C@@H](C)O)NC(=O)[C@@H]2CSSC[C@H](NC(=O)[C@H]([C@@H](C)O)NC(=O)[C@H](Cc3c[nH]c4ccccc34)NC(=O)[C@H](Cc3ccc(O)cc3)NC(=O)[C@H]([C@@H](C)O)NC(=O)[C@H](CC(=O)O)NC(=O)[C@H](CO)NC(=O)[C@@H]3CSSC[C@@H]4NC(=O)[C@@H]5CCCN5C(=O)[C@H](Cc5c[nH]c6ccccc56)NC(=O)[C@H]([C@@H](C)O)NC(=O)[C@H](CCCCN)NC(=O)[C@H](CCCCN)NC(=O)CNC(=O)[C@@H](NC(=O)[C@H](CCC(=O)O)NC(=O)[C@@H](N)[C@@H](C)O)CSSC[C@H](NC(=O)[C@H](CSSC[C@@H](C(=O)N[C@H](C(=O)O)C(C)C)NC1=O)NC(=O)[C@H](CC(=O)O)NC(=O)[C@H](CCC(=O)O)NC(=O)[C@H](CO)NC(=O)[C@H]([C@@H](C)O)NC(=O)[C@H](CCC(=O)O)NC4=O)C(=O)N[C@@H](CC(=O)O)C(=O)NCC(=O)N[C@@H](CC(=O)O)C(=O)N3)C(=O)N[C@@H](Cc1c[nH]cn1)C(=O)N[C@@H](CC(C)C)C(=O)NCC(=O)N[C@@H](Cc1ccccc1)C(=O)NCC(=O)N2` [µ-TRTX-Hl1a], the “reduction of NaV1.8 current” value (2 µM toxin, depolarization to −10 mV from −80 mV) is “about 50%”. For the setting “dose-response, mean ± S.E., SEM”, this compound gave an IC50 of 2190 ± 70 nM.
